Data reported in ChEMBL document CHEMBL1132239, “Tricyclic farnesyl protein transferase inhibitors: crystallographic and calorimetric studies of structure-activity relationships” (J Med Chem, 1999).

Experiments:
[1] = target: T1, Protein farnesyltransferase (Homo sapiens, UniProt P49354+P49356); experiment: Inhibition of Farnesyltransferase; format: protein-complex assay
[2] = target: T1, Protein farnesyltransferase; experiment: Inhibition of Farnesyl protein transferase; format: protein-complex assay

SMILES	IC50 [1] [nM]	IC50 [2] [nM]
O=C(Cc1ccncc1)N1CCN([C@@H]2c3ccc(Cl)cc3CCc3cccnc32)CC1	500	
O=C(Cc1cc[n+]([O-])cc1)N1CCN([C@H]2c3ccc(Cl)cc3CCc3cc(Br)cnc32)CC1		11
